Laboratory results: article PMC3677582 (Angewandte Chemie (International ed. in English), 2012)
pKi: −log10 of the molar value.

Tests used:
Assay in all cases: fluorescence anisotropy displacement
[1] = target: ERhVQSTRL metallopeptide
[2] = target: EWPTSII peptide
[3] = target: QLDRhVTR metallopeptide
[4] = target: VQDRhTRL metallopeptide (Homo sapiens)
[5] = target: VQDTRL peptide (CFTR C-terminus) (Homo sapiens)

pKi [1]: 6.25 | pKi [2]: 4.19 | pKi [3]: 5.00 | pKi [4]: 5.20 | pKi [5]: 3.49
Substance: CAL (CFTR-associated ligand) PDZ (from UniProt Q9HD26)
